Experimental findings from ChEMBL document CHEMBL1139160 (Bioorg Med Chem Lett, 2007) are described below.

Protein sequences, listed by entry. Tags and fused reporters are not part of them. Lines headed by an entry give the natural chain unless they say otherwise; changes in a name come on top.
UniProt P14740: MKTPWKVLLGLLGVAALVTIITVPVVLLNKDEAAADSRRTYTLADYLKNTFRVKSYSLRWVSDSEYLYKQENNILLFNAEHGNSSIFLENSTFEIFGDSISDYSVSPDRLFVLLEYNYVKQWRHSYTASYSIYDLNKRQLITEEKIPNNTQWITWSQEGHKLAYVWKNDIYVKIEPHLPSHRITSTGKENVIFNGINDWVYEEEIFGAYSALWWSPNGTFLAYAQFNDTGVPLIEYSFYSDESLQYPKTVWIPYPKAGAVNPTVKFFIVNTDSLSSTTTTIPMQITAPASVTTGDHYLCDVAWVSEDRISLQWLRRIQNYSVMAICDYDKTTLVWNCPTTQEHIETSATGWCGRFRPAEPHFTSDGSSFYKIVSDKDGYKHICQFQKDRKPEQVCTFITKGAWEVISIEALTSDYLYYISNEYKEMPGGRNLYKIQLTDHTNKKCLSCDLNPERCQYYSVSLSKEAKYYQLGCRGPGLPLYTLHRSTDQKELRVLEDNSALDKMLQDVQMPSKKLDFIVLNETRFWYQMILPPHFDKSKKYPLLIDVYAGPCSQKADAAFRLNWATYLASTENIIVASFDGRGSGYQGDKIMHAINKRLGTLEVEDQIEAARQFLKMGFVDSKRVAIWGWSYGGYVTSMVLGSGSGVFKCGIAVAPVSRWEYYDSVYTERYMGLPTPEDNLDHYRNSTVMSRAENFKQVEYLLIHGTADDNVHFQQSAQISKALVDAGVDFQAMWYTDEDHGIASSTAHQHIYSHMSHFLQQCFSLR

The assay deals with Dipeptidyl peptidase 4 (Rattus norvegicus, UniProt P14740). Description: Inhibition of DPP4 in rat plasma by fluorescence assay. Format: cell-free.

`O=C([C@@H]1C[C@H](N2CCN(c3ccc([N+](=O)[O-])cc3)CC2)CN1)N1CCSC1` displayed a half-inhibitory concentration (IC50) of 2.2 nM. This lies in the single-digit nanomolar range.
